The target in assay [1] is T1, hNav1.7 (Homo sapiens (Human), UniProt Q15858). Kind of assay: Patch voltage clamp electrophysiology (PatchXpress), HEK-293 cells, inactivated state block. It is filed as cell-based. The note with it: β1 coexpressed, holding −60 mV, read-out: EP_PX 293 hNav1.7 (IC50).
Assay [2] has as its target T1, hNav1.7. Kind of assay: Tritiated aryl sulfonamide binding to membranes from cells expressing hNav1.7 and the β1 subunit (competitive binding). The note with it: read-out: NaV1.7 395 Memb Binding (IC50). The protocol:
Tritiated Aryl Sulfonamide Binding to Membranes Isolated from Cells that Heterologously Express hNav1.7 and the β1 Subunit
Preparation of membranes containing recombinantly expressed sodium channels: Frozen recombinant cell pellets were thawed on ice and diluted to 4 times the cell pellet weight with ice cold 50 mM Tris HCl, pH 7.4 buffer. The cell suspensions were homogenized on ice using a motorized glass dounce homogeniser. Homogenates were further diluted 8.4 times with ice cold 50 mM Tris HCl, pH 7.4 buffer and then centrifuged at 200×g at 4° C. for 15 min. The supernatants were collected and centrifuged at 10000×g at 4° C. for 50 min. The pellets were then re-suspended in 100 mM NaCl, 20 mM Tris HCl, pH 7.4 buffer containing 1% v/v protease inhibitors (Calbiochem) and re-homogenized on ice. The homogenized membranes were then processed through a syringe equipped with a 26 gauge needle. Protein concentrations were determined by Bradford Assay and the membranes were stored at −80° C.
Radioligand Binding Studies: Saturation experiments. A representative compound of formula (I) was tritiated. […] Non-specific binding was determined in the presence of 1 μM unlabelled compound. […] [^3H]compound bound to filters was quantified by liquid scintillation counting.
Competitive binding experiments. […] Bound radioactivity was determined by liquid scintillation counting. […]

Chains of the proteins cited; added tags and fusions are not shown.
UniProt Q15858, whole entry, looked up: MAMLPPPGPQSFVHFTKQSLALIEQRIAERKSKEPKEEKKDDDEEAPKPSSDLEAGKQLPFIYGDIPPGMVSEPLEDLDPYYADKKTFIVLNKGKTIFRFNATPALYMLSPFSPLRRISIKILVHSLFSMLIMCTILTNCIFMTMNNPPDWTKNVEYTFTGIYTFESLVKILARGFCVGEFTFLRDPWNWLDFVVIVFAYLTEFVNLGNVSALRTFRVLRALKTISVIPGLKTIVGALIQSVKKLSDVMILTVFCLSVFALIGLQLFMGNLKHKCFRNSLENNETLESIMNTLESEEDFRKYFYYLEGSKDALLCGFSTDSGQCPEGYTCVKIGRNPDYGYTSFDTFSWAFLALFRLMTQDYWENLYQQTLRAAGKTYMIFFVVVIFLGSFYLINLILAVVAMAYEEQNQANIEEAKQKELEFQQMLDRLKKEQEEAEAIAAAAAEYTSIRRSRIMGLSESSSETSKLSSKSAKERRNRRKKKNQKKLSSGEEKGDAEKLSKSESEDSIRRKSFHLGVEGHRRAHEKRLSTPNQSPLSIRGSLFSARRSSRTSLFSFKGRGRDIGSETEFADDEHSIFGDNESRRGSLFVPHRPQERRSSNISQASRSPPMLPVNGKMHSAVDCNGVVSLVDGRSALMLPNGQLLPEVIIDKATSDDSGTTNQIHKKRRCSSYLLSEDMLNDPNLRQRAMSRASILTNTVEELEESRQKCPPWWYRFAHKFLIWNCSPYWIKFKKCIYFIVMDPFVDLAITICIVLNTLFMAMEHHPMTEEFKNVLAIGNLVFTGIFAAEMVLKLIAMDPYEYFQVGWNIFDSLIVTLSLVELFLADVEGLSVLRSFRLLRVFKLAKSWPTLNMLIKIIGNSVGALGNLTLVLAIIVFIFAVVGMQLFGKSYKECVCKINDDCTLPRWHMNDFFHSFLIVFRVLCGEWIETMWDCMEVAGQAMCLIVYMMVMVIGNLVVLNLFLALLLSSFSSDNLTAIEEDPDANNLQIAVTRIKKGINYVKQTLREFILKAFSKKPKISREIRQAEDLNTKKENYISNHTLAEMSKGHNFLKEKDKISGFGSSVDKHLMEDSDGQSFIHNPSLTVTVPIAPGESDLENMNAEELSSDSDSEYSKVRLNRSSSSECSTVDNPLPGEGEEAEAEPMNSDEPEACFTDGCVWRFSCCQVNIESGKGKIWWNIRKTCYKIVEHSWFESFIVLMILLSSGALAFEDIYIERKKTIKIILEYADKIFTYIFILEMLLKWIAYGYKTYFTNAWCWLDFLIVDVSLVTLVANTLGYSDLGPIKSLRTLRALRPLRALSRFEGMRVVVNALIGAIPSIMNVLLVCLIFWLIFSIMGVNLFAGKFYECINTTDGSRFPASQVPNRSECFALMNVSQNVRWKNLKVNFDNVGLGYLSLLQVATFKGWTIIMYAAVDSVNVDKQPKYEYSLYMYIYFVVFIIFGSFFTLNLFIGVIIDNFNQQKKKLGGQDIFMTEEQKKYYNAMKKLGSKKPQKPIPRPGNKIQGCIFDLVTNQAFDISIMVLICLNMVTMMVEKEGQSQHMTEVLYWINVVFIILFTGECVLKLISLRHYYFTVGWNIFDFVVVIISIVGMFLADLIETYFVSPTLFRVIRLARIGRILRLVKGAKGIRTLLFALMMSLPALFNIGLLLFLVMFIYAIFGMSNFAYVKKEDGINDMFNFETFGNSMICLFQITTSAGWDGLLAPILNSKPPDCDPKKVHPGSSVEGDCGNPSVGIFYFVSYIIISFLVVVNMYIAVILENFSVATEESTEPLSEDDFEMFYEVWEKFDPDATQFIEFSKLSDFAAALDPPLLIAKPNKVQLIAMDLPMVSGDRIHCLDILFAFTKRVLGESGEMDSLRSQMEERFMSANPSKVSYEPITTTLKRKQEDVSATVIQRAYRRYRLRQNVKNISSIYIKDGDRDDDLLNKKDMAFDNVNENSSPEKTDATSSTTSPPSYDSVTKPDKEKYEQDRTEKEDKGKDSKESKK

Take `O=C(NS(=O)(=O)C1CC1)c1cc(Cl)c(OCC23CC4CC(CC(C4)C2)C3)cc1F`: the IC50 in assay [1] amounted to 15.3 nM.

In the case of `CC1CCC(COc2cc(F)c(C(=O)NS(=O)(=O)N3CCC3)cc2C2CC2)CC1` (racemic) [Example 388], the IC50 in assay [2] (membranes with hNav1.7 and β1 subunit, [3H]compound displacement, 18 h, room temperature) came out at 7 nM.

As to `C[C@@H]1[C@H]2C[C@@H](C[C@H]1Oc1cc(F)c(C(=O)NS(C)(=O)=O)cc1Cl)C2(C)C` [Example 10], the half-inhibitory concentration (IC50) in assay [1] was 8.2 nM.

In the case of `C[C@@H]1[C@@H](Oc2cc(F)c(C(=O)NS(C)(=O)=O)cc2Cl)C[C@H]2C[C@@H]1C2(C)C` [Example 14], in assay [1], the IC50 is 37.7 nM.

As to `C[C@H]1CC[C@H](COc2cc(F)c(C(=O)NS(=O)(=O)N3CCC3)cc2C2CC2)CC1` [Example 420], the 50% inhibitory concentration (IC50) in assay [2] was 6 nM.

The term IC50 denotes the concentration that inhibits the measured activity by half.

Values taken from patent publication US8952169B2 (Genentech, Inc., priority 2012, dated 2015).
